Measured values published in patent US10335470B2, “Immunogenic compositions comprising progastrin and uses thereof” (Board of Regents, The University of Texas System, priority 2006, dated 2019).

Molecular target: T1, CCK2R (Rattus norvegicus, UniProt P30553)
T1 construct: endogenous in cells; host or cells: AR42J cells
T1 sequence (P30553 1-452): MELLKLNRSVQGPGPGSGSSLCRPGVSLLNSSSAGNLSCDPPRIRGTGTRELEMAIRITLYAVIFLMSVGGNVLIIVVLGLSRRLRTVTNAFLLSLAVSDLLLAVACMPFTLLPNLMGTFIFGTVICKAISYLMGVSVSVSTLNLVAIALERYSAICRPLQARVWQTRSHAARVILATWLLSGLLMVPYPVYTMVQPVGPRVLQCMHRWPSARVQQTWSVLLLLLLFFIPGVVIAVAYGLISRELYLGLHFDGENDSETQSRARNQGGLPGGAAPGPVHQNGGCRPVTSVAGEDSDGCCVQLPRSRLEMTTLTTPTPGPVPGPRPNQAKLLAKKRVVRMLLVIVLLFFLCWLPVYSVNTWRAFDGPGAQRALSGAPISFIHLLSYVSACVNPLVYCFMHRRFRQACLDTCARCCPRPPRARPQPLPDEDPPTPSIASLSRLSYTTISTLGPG
Assay: Displacement of 125I-BH-CCK8 binding to AR42J cells
Description: FIGS. 8A-8C show binding of ^125I-rhPG and ^125I-BH-CCK8 to a pancreatic cancer cell line, AR42J and intestinal epithelial cells (IEC). Cells were incubated with the indicated radio labeled ligand in the presence or absence of increasing concentrations of either CCK8, G17 or rhPG. The relative binding affinity of the gastrin like peptides for the specific binding sites for rhPG (FIGS. 8A and B) (Annexin II) and CCK8 (FIG. 8C) to CCK2R was calculated. Data in each point represents the mean values of triplicate measurements from a single experiment and is representative of 2 similar experiments. The intra-experimental variation for each data point was <5-10%. […]
In order to define the RBA of various peptides for the PG binding sites on the cells, cells in suspension were incubated with 1.0 nM ^125I-rhPG in the presence or absence of increasing concentrations (0.1 nM-10.0 μM) of either the homologous or heterologous peptide. Non-specific binding was determined in the presence of 1000× excess of the non-labeled homologous peptide. […] Cell pellets were counted for ^125I in a gamma counter with ˜70% efficiency for ^125I. The RBA of gastrin-like peptides and/or competing peptides for binding the specific binding sites for rhPG were determined from a log-dose inhibition of specific binding of ^125I-rhPG by various peptides as described previously (Singh et al, 1995). […]

Row | displacement of binding of 125I-BH-CCK8 to CCK2R | Substance
1 | completely displaced | CCK: cholecystokinin (CCK-8), amidated peptide closely related to gastrin
2 | completely displaced | G17: 17 amino acid C-terminally amidated gastrin peptide (QGPWLEEEEEAYGWMDF)
